Measured values taken from patent US8604009B2, “(20S)-2-methylene-19-nor-22-dimethyl-1α,25-dihydroxyvitamin D3 and (20R)-2-methylene-19-nor-22-dimethyl-1α,25-hydroxyvitamin D3” (Wisconsin Alumni Research Foundation, priority 2010, dated 2013).

What was measured:
HL-60 cells = assay: HL-60 differentiation (nitro blue tetrazolium reduction); type: cell-based; details: Homo sapiens, 96 h, 4 days, read-out: concentration inducing the differentiation of HL-60 cells in culture
Procedure: The study drugs were dissolved in ethanol and the concentrations determined using UV spectrophotometry. Serial dilutions were prepared so that a range of drug concentrations could be tested without changing the final concentration of ethanol (≦0.2%) present in the cell cultures.
Human promyelocytic leukemia (HL60) cells were grown in RPMI-1640 medium containing 10% fetal bovine serum. The cells were incubated at 37° C. in the presence of 5% CO2.
HL60 cells were plated at 1.2×10^5 cells/mL. Eighteen hours after plating, cells in duplicate were treated with drug. Four days later, the cells were harvested and a nitro blue tetrazolium reduction assay was performed (Collins et al., J. Exp. Med. (1979) 149:969-974). The percentage of differentiated cells was determined by counting a total of 200 cells and recording the number that contained intracellular black-blue formazan deposits. Verification of differentiation to monocytic cells was determined by measuring phagocytic activity (data not shown).

[1] = system: 24-hydroxylase (24-OHase) gene promoter in ROS 17/2.8 (bone) cells; assay: In vitro transcription assay (24-hydroxylase promoter luciferase reporter); type: cell-based; details: ROS 17/2.8 cells, 16 hours; read-out: concentration stimulating 24-OHase gene expression in bone cells
Procedure: Transcription activity was measured in ROS 17/2.8 (bone) cells that were stably transfected with a 24-hydroxylase (24-Ohase) gene promoter upstream of a luciferase reporter gene (Arbour et al., Analytical Biochem. (1998) 255(1):148-154). Cells were given a range of doses. Sixteen hours after dosing the cells were harvested and luciferase activities were measured using a luminometer. RLU=relative luciferase units.

C=C1/C(=C\C=C2/CCC[C@]3(C)[C@@H]([C@H](C)CCCC(C)(C)O)CC[C@@H]23)C[C@@H](O)C[C@@H]1O [1,25-(OH)2D3, 1α,25-dihydroxyvitamin D3] showed an EC50 (HL-60 cells) of 3 nM and an EC50 [1] of 0.2 nM.
